# Key:
# Chains of the proteins cited; added tags and fusions are not shown. Residues count along the entry.
# UniProt P00533, 25-1210 limits assumed: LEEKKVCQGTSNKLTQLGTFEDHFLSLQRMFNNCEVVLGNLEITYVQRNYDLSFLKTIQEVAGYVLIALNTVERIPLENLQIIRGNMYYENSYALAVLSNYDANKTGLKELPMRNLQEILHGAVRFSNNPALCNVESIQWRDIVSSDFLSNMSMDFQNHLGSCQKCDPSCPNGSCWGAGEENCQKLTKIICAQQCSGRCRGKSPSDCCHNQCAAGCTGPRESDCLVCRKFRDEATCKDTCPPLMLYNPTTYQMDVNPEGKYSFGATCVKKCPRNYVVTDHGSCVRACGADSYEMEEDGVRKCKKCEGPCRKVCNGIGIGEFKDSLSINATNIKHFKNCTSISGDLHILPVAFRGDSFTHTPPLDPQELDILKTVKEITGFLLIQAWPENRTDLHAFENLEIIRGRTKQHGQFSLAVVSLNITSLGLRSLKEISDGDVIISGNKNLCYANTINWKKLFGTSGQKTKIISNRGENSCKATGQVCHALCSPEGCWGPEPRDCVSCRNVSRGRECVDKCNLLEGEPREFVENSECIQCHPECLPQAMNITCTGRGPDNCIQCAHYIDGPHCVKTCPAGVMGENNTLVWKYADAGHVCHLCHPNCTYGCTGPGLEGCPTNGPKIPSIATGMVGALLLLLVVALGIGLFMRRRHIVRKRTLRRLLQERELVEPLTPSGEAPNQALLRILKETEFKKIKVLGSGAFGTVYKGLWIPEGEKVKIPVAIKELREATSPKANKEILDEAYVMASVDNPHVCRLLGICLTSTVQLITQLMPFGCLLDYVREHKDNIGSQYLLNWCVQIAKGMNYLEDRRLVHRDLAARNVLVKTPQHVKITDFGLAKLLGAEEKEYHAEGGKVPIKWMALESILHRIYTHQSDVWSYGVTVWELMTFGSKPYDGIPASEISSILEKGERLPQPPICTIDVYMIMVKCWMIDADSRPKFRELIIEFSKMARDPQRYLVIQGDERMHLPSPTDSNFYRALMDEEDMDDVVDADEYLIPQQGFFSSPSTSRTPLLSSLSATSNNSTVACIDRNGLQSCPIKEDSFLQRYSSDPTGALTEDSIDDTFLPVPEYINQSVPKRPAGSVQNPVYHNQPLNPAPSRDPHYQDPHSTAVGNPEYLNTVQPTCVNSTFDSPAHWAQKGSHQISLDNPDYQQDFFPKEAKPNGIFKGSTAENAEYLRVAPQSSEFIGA
# UniProt P01133, 971-1023 partner limits assumed: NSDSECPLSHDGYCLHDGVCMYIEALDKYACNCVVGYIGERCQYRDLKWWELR
# [1] = target: partially purified human EGF (epidermal growth factor) receptor tyrosine kinase (Homo sapiens, UniProt P00533); settings: read-out: Tyrosine kinase inhibitory activity (IC50, μ); Table-2 continued; partially purified EGF receptor from A431 cells; 4) hydrochloride; tested form: HCl
# KB cell = test: Cancer cell growth inhibitory activity (KB cells, MTT colorimetric determination); format: cell-based, human; settings: read-out: Cancer cell growth inhibitory activity(IC50; Table-3; KB cells, three days culture, MTT; 3) fumarate, 4) hydrochloride; tested form: HCl
Structure (SMILES),IC50 [1] [nM],IC50 (KB cell) [nM]
CCN(CC)C(C#CC(=O)c1ccc(OC)c(OC)c1)(CC)CC,2200,220
CCN(CC)C(C)(C#CC(=O)c1ccc(OC)c(OC)c1C)C(C)C (stereo not drawn),1300,75
COc1ccc(C(=O)C#CC(N)(C(C)C)C(C)C)cc1OC,1100,9700
